{
  "source": "paper PMC5962653",
  "about": "(Frontiers in Microbiology, 2018)",
  "key": {"[1]": {"tested_on": "K. pneumoniae VIM-1 strain", "conditions": "free serum AUC0-24 of healthy mice over MIC of the VIM-1 strain", "procedure": "A previously described murine peritoneal sepsis model was used ([Parra Millan et al., 2016]). Briefly, groups of un-anesthetized C57BL/6 mice were infected by ip injection of 0.5 mL of the Minimal Lethal Dose (MLD) of each strain, corresponding to (log10 cfu/mL): 8.97, 8.94 9.35, and 8.38 for VIM-1, VIM-1/DHA-1, OXA-48 plus CTX-M-15, and KPC-3 strains, respectively. Treatments were initiated 4 h post-inoculation. […] Afterward, mice were treated and monitored for 72 h. […] Samples were extracted and processed immediately after the death of mice; the survivor mice were sacrificed (sodium thiopental) at the 72 h. Aseptic thoracotomies were carried out, and blood samples were obtained for qualitative blood cultures; results were expressed as positive (≥1 cfu present in the plate) or negative. Spleens were aseptically extracted, weighed, and homogenized in sterile saline (Stomacher 80; Tekmar Co., Cincinnati, OH, United States) before quantitative cultures (log10 cfu/g) in Columbia agar with 5% sheep blood plates.\n(§1) Mortality and bacteremia rates are expressed as percentages and bacterial tissue concentrations (log10 cfu/g) as means ±SD. The two-tailed Fisher’s test, analysis of variance (ANOVA), and the Dunnet and Tukey post hoc tests were used. A P < 0.05 was considered significant. The SPSS v22.0 statistical package was used (SPSS Inc)."}, "[2]": {"tested_on": "K. pneumoniae OXA-48 plus CTX-M-15 strain", "conditions": "free serum AUC0-24 of healthy mice over MIC of the OXA-48 plus CTX-M-15 strain", "procedure": "A previously characterized murine pneumonia model was used ([Pachon-Ibanez et al., 2010]; [Docobo-Perez et al., 2012]; [Parra Millan et al., 2016]) with the OXA-48 plus CTX-M-15 strain, as OXA-48 is the most prevalent carbapenemase in Spain nowadays ([Palacios-Baena et al., 2016]). Anesthetized mice were infected intratracheally, using 50 μl of a final inoculum of 8.18 log10 cfu/mL. Therapies were initiated 4 h post-infection and treatment groups and dosages were the same as in the peritoneal sepsis model. Mice were treated and monitored over 72 h. After death or sacrifice of the mice at 72 h, blood and lungs samples were aseptically obtained and processed as detailed above.\nas §1"}},
  "data": [
    {"substance": "colistimethate sodium [CMS]", "values": [
      {"measurement": "fAUC0-24/MIC", "setting": "[1]", "value": 2.30},
      {"measurement": "fAUC0-24/MIC", "setting": "[2]", "value": 2.30}
    ]}
  ]
}
